Tests used:
Format in all cases: biochemical
[1] = target: human cathepsin S (Homo sapiens (Human), UniProt P25774); assay: Cathepsin S Ki determination
Experimental: Cathepsin S Ki Determination […] 280 μl/well of 12.5% DMSO are added to rows B-H of two columns of a 96 deep well polypropylene plate. 70 μl/well of substrate is added to row A. 2×250 μl/well of assay buffer (100 mM Na phosphate, 100 mM NaCl, pH 6.5) is added to row A, mixed, and double diluted down the plate to row H. 100 μl/well of assay buffer is added to columns 2-5 and 7-12 of 4 rows of a 96 well V bottom polypropylene plate. 200 μl/well of assay buffer is added to columns 1 and 6. The first test compound prepared in DMSO is added to column 1 of the top row, typically at a volume to provide between 10 and 30 times the initially determined rough K. […] Mix row A using a multichannel pipette and double dilute to row G. Mix row H and read in the fluorescent spectrophotometer. […] The second test compound is added to column 6 of the top row, the third to column 1 of the second row etc. Add 1 μl of comparator to column 6 of the bottom row. Mix column 1 and double dilute to column 5. Mix column 6 and double dilute to column 10. Using an 8-channel multistepping pipette set to 5×10 μl, distribute 10 μl/well of substrate to the 384 well assay plate. Distribute the first column of the substrate dilution plate to all columns of the assay plate starting at row A. The tip spacing of the multichannel pipette will correctly skip alternate rows. Distribute the second column to all columns starting at row B. Using a 12-channel multistepping pipette set to 4×10 μl, distribute 10 μl/well of inhibitor to the 384 well assay plate. Distribute the first row of the inhibitor dilution plate to alternate rows of the assay plate starting at A1. […] Using the a distributor such as a Multidrop 384, add 30 μl/well to all wells of the assay plate and read in fluorescent spectrophotomoter such as an Ascent. Fluorescent readings, (excitation and emission wavelengths 390 nm and 460 nm respectively, set using bandpass filters) reflecting the extent of enzyme cleavage of the fluorescent substrate, notwithstanding the inhibitor, are linear rate fitted for each well. […]

Sequences of proteins named here, by UniProt entry; tags and fusion partners are left off. Residues count along the entry.
UniProt P25774, 115-331: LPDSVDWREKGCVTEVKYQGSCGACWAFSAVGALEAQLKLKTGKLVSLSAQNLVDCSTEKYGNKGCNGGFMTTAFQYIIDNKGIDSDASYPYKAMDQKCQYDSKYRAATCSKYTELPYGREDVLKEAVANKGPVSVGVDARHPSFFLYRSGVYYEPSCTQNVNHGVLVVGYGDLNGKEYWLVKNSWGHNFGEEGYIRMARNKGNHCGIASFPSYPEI
UniProt P43235, 115-329: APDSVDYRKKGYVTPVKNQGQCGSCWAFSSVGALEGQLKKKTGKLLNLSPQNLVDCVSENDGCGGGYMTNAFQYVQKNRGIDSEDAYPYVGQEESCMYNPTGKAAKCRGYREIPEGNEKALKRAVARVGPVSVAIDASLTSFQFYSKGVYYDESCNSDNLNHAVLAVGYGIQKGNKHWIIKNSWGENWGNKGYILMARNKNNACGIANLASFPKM
UniProt P07711, 114-333: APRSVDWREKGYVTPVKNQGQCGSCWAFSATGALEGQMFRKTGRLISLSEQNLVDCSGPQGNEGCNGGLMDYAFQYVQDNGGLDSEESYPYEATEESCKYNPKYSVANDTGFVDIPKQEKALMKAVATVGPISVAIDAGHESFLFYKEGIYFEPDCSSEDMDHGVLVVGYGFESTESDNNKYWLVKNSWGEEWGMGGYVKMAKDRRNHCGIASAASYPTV

[2] = target: human recombinant cathepsin K (Homo sapiens (Human), UniProt P43235); assay: Determination of cathepsin K proteolytic catalytic activity (Ki); conditions: Test 2 or unnumbered test
Experimental: Determination of Cathepsin K Proteolytic Catalytic Activity
Convenient assays for cathepsin K are carried out using human recombinant enzyme, such as that described in PDB.
The recombinant cathepsin K can be expressed in a variety of commercially available expression systems including E coli, Pichia and Baculovirus systems. The purified enzyme is activated by removal of the prosequence by conventional methods.
Standard assay conditions for the determination of kinetic constants used a fluorogenic peptide substrate, typically H-D-Ala-Leu-Lys-AMC, and were determined in either 100 mM Mes/Tris, pH 7.0 containing 1 mM EDTA and 10 mM 2-mercaptoethanol or 100 mM Na phosphate, imM EDTA, 0.1% PEG4000 pH 6.5 or 100 mM Na acetate, pH 5.5 containing 5 mM EDTA and 20 mM cysteine, in each case optionally with 1M DTT as stabiliser. The enzyme concentration used was 5 nM. The stock substrate solution was prepared at 10 mM in DMSO. Screens were carried out at a fixed substrate concentration of 60 μM and detailed kinetic studies with doubling dilutions of substrate from 250 μM. […] Product fluorescence (excitation at 390 nm, emission at 460 nm) was monitored with a Labsystems Fluoroskan Ascent fluorescent plate reader. […]
Potential inhibitors are screened using the above assay with variable concentrations of test compound. […] Ki values were calculated according to equation 1. […]

[3] = target: human cathepsin L (Homo sapiens (Human), UniProt P07711); assay: Cathepsin L Ki; conditions: Test 2 or unnumbered test
Experimental: The procedure above with the following amendments is used for the determination of Ki for cathepsin L.
The enzyme is commercially available human cathepsin L (for example Calbiochem). The substrate is H-D-Val-Leu-Lys-AMC available from Bahcem. The assay buffer is 100 mM sodium acetate 1 mM EDTA, pH5.5) The DMSO stock (10 mM in 100% DMSO) is diluted to 10% in assay buffer. Enzyme is prepared at 5 nM concentration in assay buffer plus 1 mM dithiothreitol just before use. 2 ul of 10 mM inhibitor made up in 100% DMSO is dispensed into row A. 10 μl of 50 μM substrate (=1/200 dilution of 10 mM stock in DMSO, diluted in assay buffer)
Potential inhibitors are screened using the above assay with variable concentrations of test compound. Reactions were initiated by addition of enzyme to buffered solutions of substrate and inhibitor. Ki values were calculated according to equation 1.

C#C[C@@H]1CN(C(=O)[C@H](CC(C)C)NC(=O)c2ccc(-c3csc(N4CCN(C)CC4)n3)c(F)c2)[C@@H]2C(=O)CO[C@H]12 [Example 3, N-[1-6-(ethynyl-3-oxo-hexahydro-furo[3,2-b]pyrrole-4-carbonyl)-3-methyl-butyl]-3-fluoro-4-[2-(4-methyl-piperazin-1-yl)thiazol-4-yl]-benzamide]
Ki ([1]; Test 1, class symbols): > 10 µM
Ki ([1]; Test 2 or unnumbered test): 22 µM

CC(C)C[C@H](NC(=O)c1ccc(-c2csc(N3CCN(C)CC3)n2)cc1)C(=O)N1C[C@@H](C=C(Br)Br)[C@H]2OCC(=O)[C@H]21 [Ref Ex 9]
Ki [2]: 0.0026 µM

C#C[C@@H]1CN(C(=O)[C@@H](NC(=O)c2ccc(-c3nc(N4CCN(C)CC4)sc3F)cc2)C2CCCC2)[C@@H]2C(=O)CO[C@H]12 [Example 5, N-[1-(6-ethynyl-3-oxo-hexahydro-furo[3,2-b]pyrrol-4-yl)-1-cyclopentyl-2-oxo-ethyl]-4-[5-fluoro-2-(4-methyl-piperazin-1-yl)-thiazol-4-yl]-benzamide]
Ki [3]: 1.17 µM

CC(C)=C[C@@H]1CN(C(=O)[C@H](CC(C)C)NC(=O)c2ccc(-c3nc(N4CCN(C)CC4)sc3F)cc2)[C@@H]2C(=O)CO[C@H]12 [Example 4, N-[1-6-(dimethylvinyl-3-oxo-hexahydro-furo[3,2-b]pyrrole-4-carbonyl)-3-methyl-butyl]-4-[5-fluoro-2-(4-methyl-piperazin-1-yl)thiazol-4-yl]-benzamide]
Ki ([1]; Test 2 or unnumbered test): 14.5 µM
